# Yeast mating assay B: variants of the scFv Ab-14

Reference: Li et al. 2023, doi:10.1038/s41467-023-39022-2. File: FLAb, binding data.

Target: peptide PDVDLGDISGINAS, taken from heptad repeat 2 (HR2) of SARS-CoV-2 spike.

Parent scFv Ab-14: VH joined to VL by a (GGGGS)3 linker. Changes lie in the light chain CDRs alone.
VH: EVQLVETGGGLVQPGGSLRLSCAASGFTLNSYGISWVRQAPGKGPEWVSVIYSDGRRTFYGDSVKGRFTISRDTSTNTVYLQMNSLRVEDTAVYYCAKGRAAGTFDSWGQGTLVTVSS
VL: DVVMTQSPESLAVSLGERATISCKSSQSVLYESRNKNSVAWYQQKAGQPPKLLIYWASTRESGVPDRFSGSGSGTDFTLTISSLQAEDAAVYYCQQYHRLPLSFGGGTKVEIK

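Phage display of a naive human antibody library on the peptide gave the parent. These sequences belong to a second round, designed from the earlier measurements on random variants of the parent. Group labels follow the data file (Ctrl: baseline library sampled from a position-specific scoring matrix, with some repeated check sequences; En: ensemble of fine-tuned language models; GP: Gaussian process model; HC: hill climbing; Gen: genetic algorithm; Gibbs: Gibbs sampling; a sequence that several methods proposed may carry one label only). Affinity was read by AlphaSeq, a pooled yeast mating assay with surface-displayed partners. The frequency of each diploid, read from paired DNA barcodes, reflects how well the two displayed proteins bind. Read counts were normalised to the haploid input and turned into Kd by a linear fit to BCL2-family pairs of known affinity, for each replicate. There are six technical replicates.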

The parent's light chain CDRs are KSSQSVLYESRNKNSVA, WASTRES, QQYHRLPLS; each variant's own CDRs replace them letter for letter. The Kd shown is the geometric mean over detected replicates; a lower Kd is a better binder. An entry "nd" has no value in the source: the pair was not observed among the diploids in any replicate. This suggests poor binding but is not conclusive. Values of this round are not directly comparable with the first-round values of the same sequences. The parent sequence was in this pool as ten entries: three were never detected, three once, and four in most replicates, with averages from 2.2 nM to 240 nM. In the paper, a design with two or fewer of six values counts as a poor binder. Nonspecific signal, from three strains lacking the peptide, appeared in 4% of pairings of all light chain designs, centred on 430 nM (5% of these signals below 38 nM); values are not corrected for it. The control count says in how many pairings with the empty strains this scFv gave a signal.

For KSQQSVLYESTNKNSVA, WASTPES, QQYHRLPLS [Ctrl], the assay gave nd (0 of 6 replicates; controls 0 of 18).
For MISQLYNMGSFAINSVA, QASERNA, QQYDRLPLI [En_Gen], the assay gave 11 nM (6 of 6 replicates; controls 2 of 18).
For KISQMVKVGSTHSNSIA, EEQTRAK, QQYHRLPLA [En_Gen], the assay gave 8.8 nM (6 of 6 replicates; controls 2 of 18).
For SSSPLVLTESRNANSVA, WASTRES, QQYHRLPLS [Ctrl], the assay gave 140 nM (1 of 6 replicates; controls 1 of 18).
For MVNGIMDHLSKNTNNVA, ETSTRGS, QQYERLPLS [En_Gen], the assay gave 390 pM (6 of 6 replicates; controls 0 of 18).
For KFGQMVLTGAYVSNSVA, QMSTRAN, QQYHRLPLM [En_HC], the assay gave 3.8 nM (6 of 6 replicates; controls 0 of 18).
For KLSQQWLYESRNKNSVA, SASTRES, QQYHRLPLS [GP_HC], the assay gave 570 pM (6 of 6 replicates; controls 1 of 18).
For KSSQSWLYESRNKNSVA, RASTRES, QSYHRLPLS [Ctrl], the assay gave 11 nM (6 of 6 replicates; controls 0 of 18).
For TISQSMLYLSNMKNSVA, QAETRES, QQYHRLPIS [En_HC], the assay gave 680 nM (3 of 6 replicates; controls 0 of 18).
For KSSQSVYYESENKNSVA, WASTRES, QQYHRLPWS [Ctrl], the assay gave nd (0 of 6 replicates; controls 1 of 18).
For KMSQSMLYESRASNSVA, NASNRLS, QQYHRLPLS [GP_Gibbs], the assay gave 9.8 nM (6 of 6 replicates; controls 1 of 18).
For KSSQSVLYERRNKNSVA, EASTRES, QQYHRLPLS [Ctrl], the assay gave 76 nM (6 of 6 replicates; controls 3 of 18).
For KLEQSFNYESRNKNSVA, NASTRES, QQYHRLPLS [GP_HC], the assay gave 400 pM (6 of 6 replicates; controls 1 of 18).
For KLSPSWLGEERNDNSVA, NASTRES, QQYHRLPLS [GP_Gibbs], the assay gave 1.9 nM (6 of 6 replicates; controls 1 of 18).
For KLSQVTEYESHHKNNVA, DLTTRGS, QDYHRLPLS [En_HC], the assay gave 1.3 nM (6 of 6 replicates; controls 0 of 18).
For KSSISYLYESRNKNSVA, AASQRES, QQYHRLPLS [GP_HC], the assay gave 2.2 nM (6 of 6 replicates; controls 0 of 18).
For KLSQSVLYESRNKNSVA, NASTRED, QQYHRLPLS [GP_Gen], the assay gave 420 pM (6 of 6 replicates; controls 0 of 18).
For KASPSEEYESRNKNSVA, NASTRES, QQYHRLPLS [GP_Gibbs], the assay gave 3.3 nM (6 of 6 replicates; controls 2 of 18).
For KSEQSVLYESLNKNSVA, DAQTRES, QEYHRLPLS [Ctrl], the assay gave 2.4 nM (6 of 6 replicates; controls 1 of 18).
For MISQLYNMGQFAINSVA, QAEERYN, QQYDRLPLI [En_Gen], the assay gave 110 nM (5 of 6 replicates; controls 1 of 18).
For MISQLMNMGQFAINSVA, QATIRNN, QQYDRLPLA [En_Gen], the assay gave 120 nM (4 of 6 replicates; controls 0 of 18).
For KLEQSVGYEQRNKNSVA, EASTRED, QQYHRLPLS [GP_Gibbs], the assay gave 5.2 nM (6 of 6 replicates; controls 1 of 18).
For KSPQGVLYESRNKNSVA, GASQRES, QQYHRLPLS [GP_HC], the assay gave 1.7 nM (6 of 6 replicates; controls 0 of 18).
For HLSWVQLYESRNKNSVA, NASTRES, QQYHRLPLS [GP_HC], the assay gave 660 pM (6 of 6 replicates; controls 0 of 18).
For KWSNSVMLESRNWNAVA, EASTRES, QDYHRLPLS [GP_Gibbs], the assay gave 11 nM (6 of 6 replicates; controls 1 of 18).
For KSSQSVLTESRNKNSVA, WASTREN, QQYHRLPLS [Ctrl], the assay gave nd (0 of 6 replicates; controls 1 of 18).
For SLAESAHMESRNKNSVA, DNNTRES, QHYDRLPLS [En_HC], the assay gave 8.7 µM (3 of 6 replicates; controls 5 of 18).
For KMLQSHLYESRNKNSVA, NASTREW, QQYHRLPLS [GP_Gibbs], the assay gave 1.4 nM (6 of 6 replicates; controls 2 of 18).
For KVSQSVPYESRNKNSVA, EASTREQ, QQYHRLPLS [GP_Gen], the assay gave 35 pM (4 of 6 replicates; controls 0 of 18).
For KLDQSVDEKSRHKNSVA, EASTRES, QQYHRLPLS [GP_Gibbs], the assay gave 2.5 nM (6 of 6 replicates; controls 2 of 18).
For KISQSVMYESRNKNSVA, WASVRES, QQYHHLPLS [Ctrl], the assay gave 4.8 nM (6 of 6 replicates; controls 0 of 18).
For TISSVMNHMTRIKNNVA, NQDMREA, QQYDRLPLS [En_Gen], the assay gave 2.6 nM (6 of 6 replicates; controls 0 of 18).
For KLSQSVLYQSRNKNSVA, EASTRES, QQYHRLPLS [GP_Gen], the assay gave 680 pM (6 of 6 replicates; controls 1 of 18).
For KLSQSWLYQSRNSNAVA, EASQREQ, QQYHRLPLS [GP_Gibbs], the assay gave 1.3 nM (6 of 6 replicates; controls 0 of 18).
For KSSQQVLTESRNKNSVA, EAGTRES, QQYHRLPLS [Ctrl], the assay gave 16 nM (6 of 6 replicates; controls 3 of 18).
For MVNGIMDHLSKQTNNVA, ETTTRES, QQYERLPLS [En_Gen], the assay gave 2.7 nM (6 of 6 replicates; controls 1 of 18).